Measured affinities in a library of Ab-14 light chain variants

The measurements come from Li et al. 2023 (doi:10.1038/s41467-023-39022-2) through the FLAb antibody collection.

The target is the same throughout: PDVDLGDISGINAS, from the HR2 region of SARS-CoV-2 spike.

Ab-14 is the parent antibody, in scFv form: VH, then three GGGGS repeats, then VL. The heavy chain is unchanged in all variants.
VH: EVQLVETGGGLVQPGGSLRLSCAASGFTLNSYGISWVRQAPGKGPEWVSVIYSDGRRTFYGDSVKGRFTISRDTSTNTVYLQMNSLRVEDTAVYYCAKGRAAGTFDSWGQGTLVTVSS
VL: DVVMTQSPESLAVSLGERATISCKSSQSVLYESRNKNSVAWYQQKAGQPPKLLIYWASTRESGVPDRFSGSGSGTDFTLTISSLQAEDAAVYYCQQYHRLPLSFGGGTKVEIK

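Phage display of a naive human antibody library on the peptide gave the parent. Designed CDR sequences, proposed from the first random library and measured here. Group labels follow the data file (En: ensemble of fine-tuned language models; GP: Gaussian process model; HC: hill climbing; Gen: genetic algorithm; Gibbs: Gibbs sampling; a sequence that several methods proposed may carry one label only). The assay is AlphaSeq: two haploid yeast populations carry antibody and antigen on their surface. Binding brings cells together so that they mate, and sequencing counts the barcode pairs among the diploids. Scores were corrected for input abundance and mapped to Kd with protein pairs of known affinity run in the same pool. There are six technical replicates.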

Variants are written as CDR1, CDR2 and CDR3 of the light chain (limits as in the source). Parent: KSSQSVLYESRNKNSVA, WASTRES, QQYHRLPLS.
Variants here have more than six changes.
Each Kd is an estimate from the mating assay, the geometric mean of the replicates in which the pair was seen; lower is stronger.
An entry "nd" has no value in the source: the pair was not observed among the diploids in any replicate. This suggests poor binding but is not conclusive.
As a blank, each scFv also met three strains without target: over all light chain designs, 4% of these pairings were detected, typically at 430 nM and seldom below 38 nM.
The authors averaged sequences with at least three values out of six and counted those with two or fewer as poor binders.
Values of this round are not directly comparable with the first-round values of the same sequences.
Of ten entries with the parent sequence, four were seen in most replicates (averages 2.2 nM to 240 nM), three in one and three in none, so single entries are noisy.

The variant NVGQSMLGESRNRNSVA / HQSTRED / QHYHRLPLS [En_HC] showed 7.2 nM (6 of 6 replicates).
The variant TLVGNIQGGMWAKKNVA / DESTRVN / QQYYRLPLS [En_Gibbs] showed 1.4 nM (4 of 6 replicates).
The variant NITYAATQLQRIDSNVA / AGSARCR / QQYYRLPLS [En_Gibbs] showed 6.7 nM (6 of 6 replicates).
The variant QLTMITGHMSVSKNNVA / EMETREN / QQYDRLPLS [En_Gen] showed 7.8 nM (6 of 6 replicates).
The variant KLSMITGHMSTVKNNVA / EMETREN / QQYNRLPLA [En_Gen] showed 1.5 nM (6 of 6 replicates).
The variant TLTQVQGMESHNKNSVA / DLSTRGQ / QQYHRLPLS [En_HC] showed 2.1 nM (6 of 6 replicates).
The variant RLWQQMYGFNIHKNAIA / EGKERTW / QQYFRLPLS [En_Gibbs] showed 7.8 nM (6 of 6 replicates).
The variant KQDFSCPGESRNKNSVA / DASTRMS / QQYHRLPLS [GP_Gibbs] showed 670 pM (6 of 6 replicates).
The variant TISQLYNMGQFAINSVA / QASQRNA / QQYDRLPLI [En_Gen] showed 22 nM (6 of 6 replicates).
The variant KISQMYRYEQQNSSSIA / EVSMRLN / QSYHRLPLS [En_HC] showed 650 nM (5 of 6 replicates).
The variant KLMQSVEQLSRNKNSVA / HASLREV / QAYHRLPLS [GP_Gibbs] showed 7.0 nM (6 of 6 replicates).
The variant KFFQSWLYEQRQVNSVA / NASQRLL / QQYHRLPLS [GP_Gibbs] showed 1.5 nM (6 of 6 replicates).
The variant TISQITSLFTQNINNVA / EVSTRLN / QQYDRLPLS [En_Gen] showed 7.0 nM (6 of 6 replicates).
The variant NMTGTKEMQSNNINNIA / ENNERFQ / QQYFQLPLS [En_Gibbs] showed 12 nM (6 of 6 replicates).
The variant KLRMSTAYLSENKNSVA / ELTTRGS / QQYFRLPLS [En_HC] showed 48 nM (6 of 6 replicates).
The variant KLSSSHLYGQRMKNSVA / QASQREM / QQYHRLPLS [GP_Gibbs] showed 30 nM (6 of 6 replicates).
The variant KFMISLEYQMAEENAIA / HAEISTV / QQYSRLPID [En_Gibbs] showed nd (0 of 6 replicates).
The variant KISFQYRYEQLSKNSIA / EVVTRLK / QQYHRLPLS [En_HC] showed 20 nM (6 of 6 replicates).
The variant HLSINMPQQHYMYDSIA / HSDRREA / QQYYRLPLA [En_Gibbs] showed 2.2 nM (6 of 6 replicates).
The variant KLMNSMLYESRNVNNVA / NASYRES / QQYHRLPLS [GP_Gibbs] showed 600 pM (6 of 6 replicates).
The variant MISQVMNTLTRIGNNVA / DLAEREV / QQYFRLPLS [En_Gen] showed 43 nM (3 of 6 replicates).
The variant HVSSMDMNDGGIKKSVA / DDKITER / QQYMRLPLS [En_Gibbs] showed 9.2 nM (6 of 6 replicates).
The variant KDQQFYEGESRNKNSVA / SASTRES / QQYHRLPLS [GP_Gibbs] showed 6.7 nM (6 of 6 replicates).
The variant KIGHGLTTESRNRNSVA / QTETRVD / QHYHRLPLS [En_HC] showed 97 nM (6 of 6 replicates).
The variant NFTQMVLTGSTLRNSVA / HASTREE / QQYHRLPLI [En_HC] showed 4.5 nM (6 of 6 replicates).
The variant KSSGSVMMLSRNVNSVA / EATTRES / QQYHRLPLS [GP_Gibbs] showed 2.3 nM (6 of 6 replicates).
The variant KVQYQLAPSEAHTNNVA / DASVVCA / QQYQRLPLG [En_Gibbs] showed 4.9 nM (6 of 6 replicates).
The variant QFQFEDVQYGVNEQAIA / EENQRMQ / QQYFRLPLI [En_Gibbs] showed 8.5 nM (6 of 6 replicates).
The variant KSSSSTLYESGMKNSVA / NASKRMS / QQYHRLPLS [GP_Gibbs] showed 3.2 nM (6 of 6 replicates).
The variant TISQLMNMGQFAINSVA / QASIRNH / QQYDRLPLM [En_Gen] showed nd (0 of 6 replicates).
The variant KLRQVSEYESFNKNSVA / QTETREN / QDYDRLPLS [En_HC] showed nd (0 of 6 replicates).
The variant MISQVMNTLTRNGNNVA / DLQNREK / QQYFRLPLS [En_Gen] showed 12 nM (6 of 6 replicates).
The variant QLRDDIWADGMNKGSIA / ANEVLKD / QQYNRLPLS [En_Gibbs] showed 6.7 nM (6 of 6 replicates).
The variant MISQLMNMGQFAINSVA / QASIRNS / QQYDRLPLI [En_Gen] showed 5.9 nM (6 of 6 replicates).
The variant QLDWYNTTATASASNVA / DVAQRAN / QQYMRLPLM [En_Gibbs] showed 720 pM (6 of 6 replicates).
The variant KLGDMVHTLSRNKNSIA / DMRTRES / QQYNRLPLS [En_HC] showed 770 pM (6 of 6 replicates).
The variant KISSLTLYESVNKNNVA / EMSTRPS / QSYHRLPLS [En_HC] showed 2.8 nM (6 of 6 replicates).
The variant RLDFQDLMWSYDANNIA / GATLSIE / QQYGRLPLT [En_Gibbs] showed 7.3 nM (5 of 6 replicates).
The variant KSSGSVQGEDRNSNSVA / HASQRES / QQYHRLPLS [GP_Gibbs] showed 1.8 nM (6 of 6 replicates).
The variant KLSMSEGYESRMKNSVA / EASQREE / QQYHRLPLS [GP_Gibbs] showed 720 pM (6 of 6 replicates).
The variant ALELFEYQIMKDLNSIA / NTETKTN / QQYVRLPFS [En_Gibbs] showed 2.1 nM (6 of 6 replicates).
The variant SLENFTGEQNAYGSSIA / NADVLVY / QQYYRLPIV [En_Gibbs] showed nd (0 of 6 replicates).
The variant KLPFSCLYESRNKNSVA / MASTRCV / QQYHRLPLS [GP_Gibbs] showed 18 nM (6 of 6 replicates).
The variant KLEWSQLYESRNCNSVA / NASTREE / QQYHRLPLS [GP_Gibbs] showed 4.2 nM (6 of 6 replicates).
The variant KLSEFYRMETRNKNSVA / DNSTRES / QDYDRLPLS [En_HC] showed 230 nM (3 of 6 replicates).
The variant KVDISPHVQGMHKSGVA / EHDMRVG / QQYFRLPLA [En_Gibbs] showed 5.4 nM (6 of 6 replicates).
The variant IITQSVMQESRNKSNVA / NTSERES / QQYARLPLI [En_HC] showed 11 nM (6 of 6 replicates).
The variant KIQDNLGTLMKQINSVA / SSEEKSD / QSYFRLPLI [En_Gibbs] showed 7.0 nM (6 of 6 replicates).

The first 8 entries again:

{"CDR-L1": "NVGQSMLGESRNRNSVA", "CDR-L2": "HQSTRED", "CDR-L3": "QHYHRLPLS", "group": "En_HC", "Kd": "7.2 nM", "replicates with signal": "6 of 6"}
{"CDR-L1": "TLVGNIQGGMWAKKNVA", "CDR-L2": "DESTRVN", "CDR-L3": "QQYYRLPLS", "group": "En_Gibbs", "Kd": "1.4 nM", "replicates with signal": "4 of 6"}
{"CDR-L1": "NITYAATQLQRIDSNVA", "CDR-L2": "AGSARCR", "CDR-L3": "QQYYRLPLS", "group": "En_Gibbs", "Kd": "6.7 nM", "replicates with signal": "6 of 6"}
{"CDR-L1": "QLTMITGHMSVSKNNVA", "CDR-L2": "EMETREN", "CDR-L3": "QQYDRLPLS", "group": "En_Gen", "Kd": "7.8 nM", "replicates with signal": "6 of 6"}
{"CDR-L1": "KLSMITGHMSTVKNNVA", "CDR-L2": "EMETREN", "CDR-L3": "QQYNRLPLA", "group": "En_Gen", "Kd": "1.5 nM", "replicates with signal": "6 of 6"}
{"CDR-L1": "TLTQVQGMESHNKNSVA", "CDR-L2": "DLSTRGQ", "CDR-L3": "QQYHRLPLS", "group": "En_HC", "Kd": "2.1 nM", "replicates with signal": "6 of 6"}
{"CDR-L1": "RLWQQMYGFNIHKNAIA", "CDR-L2": "EGKERTW", "CDR-L3": "QQYFRLPLS", "group": "En_Gibbs", "Kd": "7.8 nM", "replicates with signal": "6 of 6"}
{"CDR-L1": "KQDFSCPGESRNKNSVA", "CDR-L2": "DASTRMS", "CDR-L3": "QQYHRLPLS", "group": "GP_Gibbs", "Kd": "670 pM", "replicates with signal": "6 of 6"}